Target: CXCR7 (Homo sapiens, UniProt P25106)
Test: PathHunter CHO-K1 CXCR7 b-arrestin recruitment assay (CXCR7 agonistic activity)
Conditions: read-out: CXCR7 EC50, PathHunter CHO-K1 CXCR7 b-arrestin cell line
Protocol: The CXCl12 receptor and CXCR7 agonistic activities of the compounds of formula (I) are determined in accordance with the following experimental method.
The assay is using the PathHunter™ CHO-K1 CXCR7 b-arrestin cell line from DiscoverX. The system is based on the Enzyme Fragment Complementation Technology. Two complementing fragments of the b-galactosidase enzyme are expressed within stably transfected cells. The larger portion of b-gal, termed EA for Enzyme Acceptor, is fused to the C-terminus of b-arrestin 2. The smaller fragment, termed ProLink™ tag, is fused to CXCR7 at the C-terminus. Upon activation, b-arrestin is recruited which forces the interaction of ProLink and EA, allowing complementation of the two fragments of b-gal and the formation of a functional enzyme which is capable of hydrolysing the substrate and generating a chemiluminescent signal.
CHO-K1 CXCR7 b-arrestin cells are detached from culture dishes with a cell dissociation buffer (Invitrogen, #13151-014) and collected in growing medium (F12 HAMS 90% (v/v)/FCS 10% (v/v), Penicillin/streptomycin 1% (v/v)). 5000 cells per well (in 20 μl) are seeded in a 384 well plate (white-walled, clear bottom; BD Falcon #353274). […] Luminescent signal is read in a microplate reader (FLUOstar Optima, bmg). The calculated EC50 values may fluctuate depending on the daily cellular assay performance. […]

Sequences of proteins named here, by UniProt entry; tags and fusion partners are left off.
UniProt P25106, whole entry: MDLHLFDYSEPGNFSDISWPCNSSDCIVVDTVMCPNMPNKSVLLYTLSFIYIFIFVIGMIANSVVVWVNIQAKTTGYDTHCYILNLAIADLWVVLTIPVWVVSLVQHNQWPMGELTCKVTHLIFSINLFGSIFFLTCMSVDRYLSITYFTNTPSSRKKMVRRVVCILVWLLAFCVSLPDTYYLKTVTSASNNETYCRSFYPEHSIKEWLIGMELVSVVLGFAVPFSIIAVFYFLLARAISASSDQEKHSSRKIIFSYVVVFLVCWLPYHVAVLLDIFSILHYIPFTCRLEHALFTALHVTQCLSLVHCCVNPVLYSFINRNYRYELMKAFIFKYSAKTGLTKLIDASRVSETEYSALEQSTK
UniProt P32121, whole entry partner: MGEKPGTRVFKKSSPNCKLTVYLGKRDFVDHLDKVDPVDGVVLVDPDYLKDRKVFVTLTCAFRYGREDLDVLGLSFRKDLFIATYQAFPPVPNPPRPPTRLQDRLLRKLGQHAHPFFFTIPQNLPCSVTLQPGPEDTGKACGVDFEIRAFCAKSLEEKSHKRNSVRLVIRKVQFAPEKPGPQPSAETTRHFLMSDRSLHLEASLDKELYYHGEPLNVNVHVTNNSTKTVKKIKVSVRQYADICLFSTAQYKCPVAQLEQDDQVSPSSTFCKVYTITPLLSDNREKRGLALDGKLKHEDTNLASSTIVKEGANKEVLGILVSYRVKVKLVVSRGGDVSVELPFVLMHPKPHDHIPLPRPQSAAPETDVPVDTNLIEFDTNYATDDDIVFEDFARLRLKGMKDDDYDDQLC

SMILES	EC50 [nM]
CNCCN(Cc1ccccc1C(F)(F)F)C(=O)CNc1cccc2c1CCN(C(=O)COC)C2	13
CN1CCN(C(=O)/C=C/c2cccc3c2CCN(CC2CC2)C3)C(c2ccccc2)C1 (centres unmarked)	285

Source: patent US9920010B2, “CXCR7 receptor modulators” (IDORSIA PHARMACEUTICALS LTD, priority 2013, dated 2018)
